The numbers were not newly measured in patent US10772886B2, “CXCR-2 inhibitors for treating crystal arthropathy disorders” (ARDEA BIOSCIENCES, INC., priority 2016, dated 2020), which cites them from elsewhere.

The conditions of the data set: cited from earlier work.

Where two headings read alike, the source gives them in different places.

As for `COc1cc2c(c(OC)c1OC)-c1ccc(OC)c(=O)cc1[C@@H](NC(C)=O)CC2` [Colchicine, COLCHICINE, reference compound], the diarrhea is 22% (lower dose regimen: 1.2 mg at onset of acute gout attack, then 0.6 mg after one hour) and 73% (standard dose regimen: 1.2 mg at onset of acute gout attack, then 0.6 mg every hour for 6 hours).
